Experimental data: ChEMBL document CHEMBL5625233, “Exploring positions 6 and 7 of a quinazoline-based scaffold leads to changes in selectivity and potency towards RIPK2/3 kinases” (Eur J Med Chem, 2023)

The chains behind the UniProt entries cited, without tags or fusion partners.
UniProt O43353, whole entry: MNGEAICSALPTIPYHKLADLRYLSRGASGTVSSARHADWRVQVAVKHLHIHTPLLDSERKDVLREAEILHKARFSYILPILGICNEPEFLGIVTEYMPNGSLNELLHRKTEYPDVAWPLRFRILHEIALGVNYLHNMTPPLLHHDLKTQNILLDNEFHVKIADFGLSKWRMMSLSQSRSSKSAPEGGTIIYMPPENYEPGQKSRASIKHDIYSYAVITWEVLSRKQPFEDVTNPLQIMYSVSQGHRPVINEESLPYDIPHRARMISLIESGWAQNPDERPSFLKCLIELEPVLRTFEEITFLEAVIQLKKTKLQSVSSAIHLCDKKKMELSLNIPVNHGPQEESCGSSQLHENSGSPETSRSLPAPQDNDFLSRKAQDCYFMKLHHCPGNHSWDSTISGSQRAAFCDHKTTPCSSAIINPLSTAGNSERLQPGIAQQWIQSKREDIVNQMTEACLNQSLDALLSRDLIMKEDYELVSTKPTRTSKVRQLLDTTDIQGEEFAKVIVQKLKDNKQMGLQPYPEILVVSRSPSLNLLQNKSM

Molecular target: Receptor-interacting serine/threonine-protein kinase 2 (Homo sapiens, UniProt O43353)
Experiment: Inhibition of N-terminal polyHis-tagged human RIPK2 (8 to 310 residues) expressed in Sf9 cells using MBP as substrate upto 10 uM preincubated for 15 mins followed by ATP addition measured after 90 mins by ADP-Glo assay
Conditions: time 105.0 min

Cc1nc(-c2cc3c(Nc4ccc5scnc5c4)ncnc3cc2Cl)sc1C
inhibition: inactive

Clc1cc2ncnc(Nc3ccc4scnc4c3)c2cc1-c1ccccc1
inhibition: inactive

Cc1csc(-c2cc3c(Nc4ccc5scnc5c4)ncnc3cc2Cl)n1
inhibition: inactive

Calls of active or inactive are those of the source. No cut-off for these calls is given here.
